Results reported in paper PMC6781469 (Journal of Enzyme Inhibition and Medicinal Chemistry, 2019).

Columns and labels:
[1] = target: CDK1/cyclin B (Homo sapiens, UniProt P06493); experiment: biochemical; details: read-out: % Inhibition CDK1/cyclin B
[2] = target: IGF1R (Homo sapiens, UniProt P08069); experiment: biochemical; details: read-out: % Inhibition IGF1R
[3] = target: PLK1 (Homo sapiens, UniProt P53350); experiment: biochemical; details: read-out: % Inhibition PLK1
[4] = target: FLT1/VEGFR1 (Homo sapiens, UniProt P17948); experiment: biochemical; details: read-out: % Inhibition FLT1/VEGFR1
[5] = target: Aurora A (Homo sapiens, UniProt O14965); experiment: biochemical; details: read-out: % Inhibition Aurora A
[6] = target: GSK3b (Homo sapiens, UniProt P49841); experiment: biochemical; details: read-out: % Inhibition GSK3b
[7] = target: ALK (Homo sapiens, UniProt Q9UM73); experiment: biochemical; details: read-out: % Inhibition ALK
[8] = target: c-Kit (Homo sapiens, UniProt P10721); experiment: biochemical; details: read-out: % Inhibition c-Kit
[9] = target: KDR/VEGFR2 (Homo sapiens, UniProt P35968); experiment: biochemical; details: read-out: % Inhibition KDR/VEGFR2
[10] = target: BTK (Homo sapiens, UniProt Q06187); experiment: biochemical; details: read-out: % Inhibition BTK
[11] = target: c-Src (Homo sapiens, UniProt P12931); experiment: biochemical; details: read-out: % Inhibition c-Src
[12] = target: MTOR/FRAP1 (Homo sapiens, UniProt P42345); experiment: kinase panel screen, MTOR/FRAP1; assay type: biochemical; details: read-out: % Inhibition MTOR/FRAP1
[13] = target: LCK (Homo sapiens, UniProt P06239); experiment: biochemical; details: read-out: % Inhibition LCK
[14] = target: RON/MST1R (Homo sapiens, UniProt Q04912); experiment: biochemical; details: read-out: % Inhibition RON/MST1R
[15] = target: ABL1 (Homo sapiens, UniProt P00519); experiment: biochemical; details: read-out: % Inhibition ABL1
[16] = target: MEK1 (Homo sapiens, UniProt Q02750); experiment: biochemical; details: read-out: % Inhibition MEK1
[17] = target: T1, FGFR3 (Homo sapiens, UniProt P22607); experiment: kinase panel screen, FGFR3; assay type: biochemical; details: read-out: % Inhibition FGFR3
T1 construct: purchased Reaction Biology Corp. (Kinase HotSpot service)

[18] = target: BRAF (V599E) (Homo sapiens, UniProt P15056, V600E); experiment: kinase panel screen, BRAF (V599E); details: read-out: % Inhibition BRAF (V599E)
[19] = target: LYN (Homo sapiens, UniProt P07948); experiment: biochemical; details: read-out: % Inhibition LYN
[20] = target: AKT1 (Homo sapiens, UniProt P31749); experiment: biochemical; details: read-out: % Inhibition AKT1
[21] = target: RIPK3 (Homo sapiens, UniProt Q9Y572); experiment: biochemical; details: read-out: % Inhibition RIPK3
[22] = target: BRAF (Homo sapiens, UniProt P15056); experiment: kinase panel screen, BRAF; details: read-out: % Inhibition BRAF
[23] = target: EGFR (Homo sapiens, UniProt P00533); experiment: biochemical; details: read-out: % Inhibition EGFR
[24] = target: PKA (Homo sapiens, UniProt P17612); experiment: biochemical; details: read-out: % Inhibition PKA
[25] = target: JNK3 (Homo sapiens, UniProt P53779); experiment: biochemical; details: read-out: % Inhibition JNK3
[26] = target: P38a/MAPK14 (Homo sapiens, UniProt Q16539); experiment: biochemical; details: read-out: % Inhibition P38a/MAPK14
[27] = target: JAK3 (Homo sapiens, UniProt P52333); experiment: kinase panel screen, JAK3; details: read-out: % Inhibition JAK3
[28] = target: c-MET (Homo sapiens, UniProt P08581); experiment: biochemical; details: read-out: % Inhibition c-MET
[29] = target: CDK2/cyclin E (Homo sapiens, UniProt P24941); experiment: biochemical; details: read-out: % Inhibition CDK2/cyclin E
[30] = target: ERK1 (Homo sapiens, UniProt P27361); experiment: biochemical; details: read-out: % Inhibition ERK1

Cc1oncc1C(=O)Nc1ccc2nc(-c3cc(N4CCN(C)CC4)cc(C(F)(F)F)c3)[nH]c2c1 [5a, 5-methyl-N-(2-(3-(4-methylpiperazin-1-yl)-5-(trifluoromethyl)phenyl)-1H-benzo[d]imidazole-5-yl) isoxazole-4-carboxamide]
inhibition at 10 µM [1]: 9.31%
inhibition at 10 µM [2]: 7.13%
inhibition at 10 µM [3]: 17.4%
inhibition at 10 µM [4]: 12.7%
inhibition at 10 µM [5]: 12.5%
inhibition at 10 µM [6]: 3.98%
inhibition at 10 µM [7]: 12.6%
inhibition at 10 µM [8]: 15.5%
inhibition at 10 µM [9]: 13.2%
inhibition at 10 µM [10]: 15.6%
inhibition at 10 µM [11]: 0%
inhibition at 10 µM [12]: 2.35%
inhibition at 10 µM [13]: 0.625%
inhibition at 10 µM [14]: 0%
inhibition at 10 µM [15]: 17.1%
inhibition at 10 µM [16]: 18.8%
inhibition at 10 µM [17]: 2.81%
inhibition at 10 µM [18]: 11.9%
inhibition at 10 µM [19]: 15.2%
inhibition at 10 µM [20]: 11.9%
inhibition at 10 µM [21]: 12.7%
inhibition at 10 µM [22]: 7.31%
inhibition at 10 µM [23]: 4.09%
inhibition at 10 µM [24]: 8.46%
inhibition at 10 µM [25]: 7.12%
inhibition at 10 µM [26]: 0%
inhibition at 10 µM [27]: 0%
inhibition at 10 µM [28]: 9.18%
inhibition at 10 µM [29]: 1.78%
inhibition at 10 µM [30]: 5.18%
